In experiment [1] the target is Muscarinic acetylcholine receptor M3 (Cavia porcellus) (UniProt Q8VH26). As to the kind of experiment: Relative efficacies determined with oxotremorine as the reference in guinea pig ileum, as a measure of muscarinic acetylcholine receptor M3 agonistic activity. It is filed as functional, tissue-based.
Experiment [2] has the same target. As to the kind of experiment: Maximum contractile response relative to carbachol (E max) in guinea pig ileum as muscarinic acetylcholine receptor M3 agonistic/antagonistic activity. It is filed as functional, tissue-based.

Take `CC1CCN(CC#CCN2CCCC2)C1=O` (configuration not stated): the Efficacy in experiment [1] came out at 0.1. The Emax in experiment [2] came to 1.

Source of the values: ChEMBL document CHEMBL1125543, “Urea and 2-imidazolidone derivatives of the muscarinic agents oxotremorine and N-methyl-N-(1-methyl-4-pyrrolidino-2-butynyl)acetamide” (J Med Chem, 1992).
